Source: ChEMBL document CHEMBL1687910, “Isoindolinone inhibitors of the murine double minute 2 (MDM2)-p53 protein-protein interaction: structure-activity studies leading to improved potency” (J Med Chem, 2011)

Amino acid sequences for entries named in this document (tags omitted).
UniProt Q00987, whole entry: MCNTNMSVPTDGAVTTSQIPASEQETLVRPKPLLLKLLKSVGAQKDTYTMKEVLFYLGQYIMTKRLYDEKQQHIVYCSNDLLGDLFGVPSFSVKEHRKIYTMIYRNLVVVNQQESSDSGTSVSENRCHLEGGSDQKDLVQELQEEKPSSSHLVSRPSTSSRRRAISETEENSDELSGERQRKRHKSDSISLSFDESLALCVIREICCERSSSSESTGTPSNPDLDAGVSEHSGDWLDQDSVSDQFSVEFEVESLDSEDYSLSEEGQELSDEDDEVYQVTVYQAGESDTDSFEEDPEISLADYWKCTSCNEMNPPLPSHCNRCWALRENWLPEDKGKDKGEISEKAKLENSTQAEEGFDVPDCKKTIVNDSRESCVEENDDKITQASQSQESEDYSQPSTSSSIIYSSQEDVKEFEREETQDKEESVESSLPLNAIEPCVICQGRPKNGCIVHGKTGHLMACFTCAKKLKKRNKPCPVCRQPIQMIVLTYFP

Molecular target: E3 ubiquitin-protein ligase Mdm2 (Homo sapiens, UniProt Q00987)
Assay: Inhibition of Mdm2 -p53 protein interaction by ELISA

IC50: 390 nM
SMILES: O=C1c2ccccc2C(O[C@H]2CC[C@H](O)CC2)(c2ccc(Cl)cc2)N1Cc1ccc([N+](=O)[O-])cc1 (mixture of isomers)
